Assay results taken from patent publication US20240360179A1, “STAPLED PEPTIDES AND METHODS THEREOF” (FOG PHARMACEUTICALS, INC., priority 2021, published 2024).

By UniProt entry, the sequences of proteins in these tests, tags left out.
UniProt P35222, whole entry: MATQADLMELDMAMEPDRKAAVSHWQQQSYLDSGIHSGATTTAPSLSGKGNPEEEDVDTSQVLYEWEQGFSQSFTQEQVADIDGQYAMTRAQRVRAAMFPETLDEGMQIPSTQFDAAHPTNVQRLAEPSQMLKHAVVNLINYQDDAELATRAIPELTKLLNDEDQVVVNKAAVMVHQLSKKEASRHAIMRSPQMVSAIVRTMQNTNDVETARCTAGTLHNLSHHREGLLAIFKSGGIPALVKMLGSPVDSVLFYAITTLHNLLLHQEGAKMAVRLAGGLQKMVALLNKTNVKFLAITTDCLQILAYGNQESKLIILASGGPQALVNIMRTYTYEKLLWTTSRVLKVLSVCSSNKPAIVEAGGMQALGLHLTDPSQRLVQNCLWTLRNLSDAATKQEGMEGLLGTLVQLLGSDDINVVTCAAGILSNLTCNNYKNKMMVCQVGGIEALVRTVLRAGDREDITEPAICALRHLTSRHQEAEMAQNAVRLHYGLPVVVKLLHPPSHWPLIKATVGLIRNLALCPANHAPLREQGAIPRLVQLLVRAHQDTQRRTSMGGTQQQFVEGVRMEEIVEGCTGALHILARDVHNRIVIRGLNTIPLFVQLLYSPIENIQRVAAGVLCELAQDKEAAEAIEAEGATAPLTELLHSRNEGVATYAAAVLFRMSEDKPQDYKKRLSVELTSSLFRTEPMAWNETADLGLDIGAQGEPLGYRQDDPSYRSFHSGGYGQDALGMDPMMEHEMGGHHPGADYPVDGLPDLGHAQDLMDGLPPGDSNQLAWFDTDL

How the values were obtained:
[1] = target: beta-catenin/TCF4 interaction (Homo sapiens, UniProt P35222); assay type: cell-based; design: host or cells: HEK293; settings: read-out: NanoBRET Abs IC50
[2] = target: T1, full-length B-Catenin (Uniprot ID P35222) (Homo sapiens, UniProt P35222); assay type: binding; settings: competition fluorescence polarization; read-out: beta-Catenin FP IC50
T1 construct: 10 nM full-length B-Catenin (Uniprot ID P35222)

Substance | IC50 [1] [nM] | IC50 [2] [nM]
2FPhc-PL3-Asp-Npg-B5-Asp-3COOHF-Aib-Ala-Phe-Lys*3-PyrS2-3Thi-BztA-GlnR*3-Ala-NH2 [I-752] | > 10000 | 50 to 200
2PymCO-PL3-Asp-Npg-B5-Asp-3COOHF-Aib-Ala-Phe-Lys*3-PyrS2-3Thi-BztA-GlnR*3-Ala-NH2 [I-909] | 3000 to 10000 | < 50
3IAPAc-PL3-Asp-Npg-B5-Asp-3COOHF-Aib-Ala-Phe-Lys*3-PyrS2-3Thi-BztA-GlnR*3-Ala-NH2 [I-1076] | > 10000 | < 50
3Phc3-PL3-Asp-Npg-B5-Asp-3COOHF-Aib-Ala-Phe-Lys*3-PyrS2-3Thi-BztA-GlnR*3-Ala-NH2 [I-749] | 3000 to 10000 | < 50
3Py Ac-PL3-Asp-Npg-B5-Asp-3COOHF-Aib-Ala-Phe-Lys*3-PyrS2-3Thi-BztA-GlnR*3-Ala-NH2 [I-1067] | > 10000 | < 50
5hexenyl-MePro-Asp-[Phc][Allyl]Dap-R5-Asp-3COOHF-Aib-Ala-Phe-Lys*3-PyrS2-3Thi-BztA-GlnR*3-Ala-NH2 [I-818] | > 10000 | < 50
15PyraPy-PL3-Asp-Npg-B5-Asp-3COOHF-Aib-Ala-Phe-Lys*3-PyrS2-3Thi-BztA-GlnR*3-Ala-NH2 [I-904] | 3000 to 10000 | < 50
Ac-PL3-Asp-Cba-B5-Asp-3COOHF-Aic-Ala-Phe-Lys*3-PyrS2-3Thi-BztA-GlnR*3-Ala-NH2 [I-847] | 3000 to 10000 | < 50
Ac-PL3-Asp-Cba-B5-Asp-3COOHF-Cbg-Ala-Phe-Lys*3-PyrS2-3Thi-BztA-GlnR*3-Ala-NH2 [I-860] | 3000 to 10000 | < 50
Ac-PL3-Asp-Cba-B5-Asp-3COOHF-Cha-Ala-Phe-Lys*3-PyrS2-3Thi-BztA-GlnR*3-Ala-NH2 [I-734] | 1500 to 3000 | < 50
Ac-PL3-Asp-Cba-B5-Asp-3COOHF-CyLeu-Ala-Phe-Lys*3-PyrS2-3Thi-BztA-GlnR*3-Ala-NH2 [I-733] | < 1500 | < 50
Ac-PL3-Asp-Cba-B5-Asp-3COOHF-Phe-Ala-Phe-Lys*3-PyrS2-3Thi-BztA-GlnR*3-Ala-NH2 [I-732] | < 1500 | < 50
Ac-PL3-Asp-Cba-B5-Asp-3COOHF-nLeu-Ala-Phe-Lys*3-PyrS2-3Thi-BztA-GlnR*3-Ala-NH2 [I-990] | 3000 to 10000 | < 50
Ac-PL3-Asp-Cha-B5-Asp-3COOHF-Aic-Ala-Phe-Lys*3-PyrS2-3Thi-BztA-GlnR*3-Ala-NH2 [I-846] | 3000 to 10000 | < 50
Ac-PL3-Asp-Cha-B5-Asp-3COOHF-Cbg-Ala-Phe-Lys*3-PyrS2-3Thi-BztA-GlnR*3-Ala-NH2 [I-859] | 1500 to 3000 | < 50
Ac-PL3-Asp-Cha-B5-Asp-3COOHF-CyhLeu-Ala-Phe-Lys*3-PyrS2-3Thi-BztA-GlnR*3-Ala-NH2 [I-852] | 1500 to 3000 | < 50
Ac-PL3-Asp-Cha-B5-Asp-3COOHF-Phe-Ala-Phe-Lys*3-PyrS2-3Thi-BztA-GlnR*3-Ala-NH2 [I-841] | 1500 to 3000 | < 50
Ac-PL3-Asp-Chg-B5-Asp-3COOHF-Aib-Gly-Phe-Lys*3-PyrS2-3Thi-BztA-GlnR*3-Ala-NH2 [I-999] | 3000 to 10000 | < 50
Ac-PL3-Asp-Chg-B5-Asp-3COOHF-Aib-aThr-Phe-Lys*3-PyrS2-3Thi-BztA-GlnR*3-Ala-NH2 [I-998] | 3000 to 10000 | < 50
Ac-PL3-Asp-Chg-B5-Asp-3COOHF-Aic-Ala-Phe-Lys*3-PyrS2-3Thi-BztA-GlnR*3-Ala-NH2 [I-844] | 1500 to 3000 | < 50

Substance | IC50 [1] [nM] | IC50 [2] [nM]
Ac-PL3-Asp-Chg-B5-Asp-3COOHF-Cha-Ala-Phe-Lys*3-PyrS2-3Thi-BztA-GlnR*3-Ala-NH2 [I-737] | < 1500 | < 50
Ac-PL3-Asp-Chg-B5-Asp-3COOHF-CyLeu-Ala-Phe-Lys*3-PyrS2-3Thi-BztA-GlnR*3-Ala-NH2 [I-736] | < 1500 | < 50
Ac-PL3-Asp-Chg-B5-Asp-3COOHF-CyhLeu-Ala-Phe-Lys*3-PyrS2-3Thi-BztA-GlnR*3-Ala-NH2 [I-850] | 1500 to 3000 | < 50
Ac-PL3-Asp-Chg-B5-Asp-3COOHF-Phe-Ala-Phe-Lys*3-PyrS2-3Thi-BztA-GlnR*3-Ala-NH2 [I-735] | 3000 to 10000 | < 50
Ac-PL3-Asp-Chg-B5-Asp-3COOHF-dAla-Ala-Phe-Lys*3-PyrS2-3Thi-BztA-GlnR*3-Ala-NH2 [I-996] | 1500 to 3000 | < 50
Ac-PL3-Asp-DipA-B5-Asp-3COOHF-Aib-Ala-Phe-Lys*3-PyrS2-3Thi-BztA-GlnR*3-Ala-NH2 [I-708] | 1500 to 3000 | < 50
Ac-PL3-Asp-DipA-B5-Asp-3COOHF-Aib-Gly-Phe-Lys*3-PyrS2-3Thi-BztA-GlnR*3-Ala-NH2 [I-1008] | 3000 to 10000 | < 50
Ac-PL3-Asp-DipA-B5-Asp-3COOHF-Aib-Ser-Phe-Lys*3-PyrS2-3Thi-BztA-GlnR*3-Ala-NH2 [I-1004] | 3000 to 10000 | < 50
Ac-PL3-Asp-DipA-B5-Asp-3COOHF-Aib-aThr-Phe-Lys*3-PyrS2-3Thi-BztA-GlnR*3-Ala-NH2 [I-1006] | > 10000 | < 50
Ac-PL3-Asp-DipA-B5-Asp-3COOHF-Aic-Ala-Phe-Lys*3-PyrS2-3Thi-BztA-GlnR*3-Ala-NH2 [I-845] | 3000 to 10000 | < 50
Ac-PL3-Asp-Npg-B5-Asp-3COOHF-Aib-Ala-Phe-Lys*3-PyrS2-hnLeu-34ClF-GlnR*3-Ala-NH2 [I-762] | 3000 to 10000 | 
Ac-PL3-Asp-Npg-B5-Asp-3COOHF-Aib-Ala-Phe-Lys*3-PyrS2-hnLeu-34MeF-GlnR*3-Ala-NH2 [I-764] | 3000 to 10000 | 
Ac-PL3-Asp-Npg-B5-Asp-3COOHF-Aib-Ala-Phe-Lys*3-PyrS2-hnLeu-RbMe2NapA-GlnR*3-Ala-NH2 [I-770] | 3000 to 10000 | 
Ac-PL3-Asp-Npg-B5-Asp-3COOHF-Ala-Ala-Phe-Lys*3-PyrS2-2F3MeF-34ClF-GlnR*3-Val-NH2 [I-825] | 3000 to 10000 | 
Ac-PL3-Asp-Npg-B5-Asp-TfeGA-Aib-Ala-Phe-Lys*3-PyrS2-2F3MeF-34ClF-GlnR*3-NH2 [I-891] | 3000 to 10000 | 
Ac-PL3-Asp-R5-S5-Asp-3COOHF-Aib-Ala-Phe-PyrS2-Lys*3-3Thi-BztA-Ala-GlnR*3-NH2 [I-1485] | > 10000 | 
CF3CO-PL3-Asp-DipA-B5-Asp-3COOHF-CyLeu-Ala-Phe-Lys*3-PyrS2-3Thi-34ClF-GlnR*3-NH2 [I-1716] |  | < 50
Cbc-PL3-Asp-Ile-B5-Asp-3COOHF-Aib-Ala-Phe-Lys*3-PyrS2-3Thi-34ClF-GlnR*3-NH2 [I-1588] |  | < 50
Cbc-PL3-Asp-Npg-B5-Asp-3COOHF-Aib-Ala-Phe-Lys*3-PyrS2-Phe-34ClF-GlnR*3-NH2 [I-1566] |  | < 50
Cpc-PL3-Asp-Ile-B5-Asp-3COOHF-Aib-Ala-Phe-Lys*3-PyrS2-3Thi-34ClF-GlnR*3-NH2 [I-1586] |  | < 50

Substance | IC50 [1] [nM] | IC50 [2] [nM]
CypCO-PL3-Asp-Ile-B5-Asp-3COOHF-Aib-Ala-Phe-Lys*3-PyrS2-3Thi-34ClF-GlnR*3-NH2 [I-1590] |  | < 50
Isovaleryl-PL3-Asp-DipA-B5-Asp-3COOHF-CyLeu-Ala-Phe-Lys*3-PyrS2-3Thi-34ClF-GlnR*3-NH2 [I-1711] |  | < 50
Me2NAc-PL3-Asp-Npg-B5-Asp-3COOHF-Aib-Ala-Phe-Lys*3-PyrS2-3Thi-BztA-GlnR*3-Ala-NH2 [I-1078] |  | < 50
MeImid4SO2-PL3-Asp-Npg-B5-Asp-3COOHF-Aib-Ala-Phe-Lys*3-PyrS2-3Thi-BztA-GlnR*3-Ala-NH2 [I-1083] |  | < 50
NPyroR3-Asn-Npg-B5-Asp-3COOHF-Aib-Ala-Phe-Lys*3-PyrS2-3Thi-34ClF-GlnR*3-NH2 [I-1557] |  | 200 to 750
NPyroR3-Asp-Ala-B4-Asp-3COOHF-Aib-Ala-Phe-Lys*3-PyrS3-3Thi-BztA-GlnR*3-Ala-NH2 [I-1492] |  | 50 to 200
NPyroR3-Asp-Ala-B5-Asp-3COOHF-Aib-Ala-Phe-Lys*3-PyrS2-3Thi-BztA-GlnR*3-Ala-NH2 [I-1493] |  | > 1000
NPyroR3-Asp-Ala-B6-Asp-3COOHF-Aib-Ala-Phe-Lys*3-PyrS1-3Thi-BztA-GlnR*3-Ala-NH2 [I-1494] |  | < 50
NPyroR3-Asp-Cha-B5-Asp-3COOHF-Aib-Ala-Phe-Lys*3-PyrS2-3Thi-34ClF-GlnR*3-NH2 [I-1555] |  | < 50
NPyroR3-Asp-Chg-B5-Asp-3COOHF-Aib-Ala-Phe-Lys*3-PyrS2-3Thi-34ClF-GlnR*3-NH2 [I-1554] |  | < 50
NPyroR3-Asp-DipA-B5-Asp-3COOHF-Aib-Ala-Phe-Lys*3-PyrS2-3Thi-34ClF-GlnR*3-NH2 [I-1556] |  | < 50
NPyroR3-Asp-Npg-B4-Asp-3COOHF-Aib-Ala-Phe-Lys*3-PyrS3-3Thi-BztA-GlnR*3-Ala-NH2 [I-1486] |  | 50 to 200
NPyroR3-Asp-Npg-B4-Asp-3COOHF-Aib-Ala-Phe-Lys*3-PyrS3-3Thi-BztA-GlnR*3-Ala-NH2 [I-1487] |  | 50 to 200
NPyroR3-Asp-Npg-B5-Asp-3COOHF-Aib-Ala-Phe-Lys*3-PyrS2-3Thi-34ClF-GlnR*3-NH2 [I-1548] |  | < 50
NPyroR3-Asp-Npg-B5-Asp-3COOHF-Aib-Ala-Phe-Lys*3-PyrS2-3Thi-BztA-GlnR*3-Ala-NH2 [I-1489] |  | < 50
NPyroR3-Asp-Npg-B5-Asp-3COOHF-Ala-Ala-Phe-Lys*3-PyrS2-3Thi-34ClF-GlnR*3-NH2 [I-1559] |  | < 50
NPyroR3-Ser-Npg-B5-Asp-3COOHF-Aib-Ala-Phe-Lys*3-PyrS2-3Thi-34ClF-GlnR*3-NH2 [I-1558] |  | 750 to 1000
isobutyryl-PL3-Asp-Cha-B5-Asp-3COOHF-Aib-Ala-Phe-Lys*3-PyrS2-3Thi-34ClF-GlnR*3-NH2 [I-1576] |  | < 50
isobutyryl-PL3-Asp-Npg-B5-Asp-3COOHF-Aib-Ala-Phe-Lys*3-PyrS2-Phe-34ClF-GlnR*3-NH2 [I-1563] |  | < 50
